The record followed here is ChEMBL document CHEMBL5661985, “In silico design of novel probes for the atypical opioid receptor MRGPRX2” (Nat Chem Biol, 2017).

Protein sequences, listed by entry. Tags and fused reporters are not part of them. Lines headed by an entry give the natural chain unless they say otherwise; changes in a name come on top.
UniProt P41145: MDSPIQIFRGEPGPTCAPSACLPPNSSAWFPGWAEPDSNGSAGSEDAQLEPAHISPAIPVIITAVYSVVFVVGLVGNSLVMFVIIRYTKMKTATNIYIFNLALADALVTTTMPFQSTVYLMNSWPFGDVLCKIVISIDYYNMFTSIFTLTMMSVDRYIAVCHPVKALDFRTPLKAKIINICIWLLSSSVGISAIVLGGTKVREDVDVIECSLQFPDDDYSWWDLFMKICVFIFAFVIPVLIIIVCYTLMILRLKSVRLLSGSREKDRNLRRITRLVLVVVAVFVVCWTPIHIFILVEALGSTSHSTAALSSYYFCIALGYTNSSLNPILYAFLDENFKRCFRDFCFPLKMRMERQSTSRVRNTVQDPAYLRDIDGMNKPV

For the test, the target named is Kappa-type opioid receptor (Homo sapiens, UniProt P41145). As to the kind of experiment: Agonist activity at KOR (unknown origin) by Glo sensor assay. In kind it is functional.

For the molecule `CC(C)C[C@H](NC(=O)[C@H](Cc1ccccc1)NC(=O)CNC(=O)CNC(=O)[C@@H](N)Cc1ccc(O)cc1)C(=O)N[C@@H](CCCN=C(N)N)C(=O)N[C@@H](CCCN=C(N)N)C(=O)N[C@@H](CCC(N)=O)C(=O)N[C@@H](Cc1ccccc1)C(=O)N[C@@H](CCCCN)C(=O)N[C@H](C(=O)N[C@H](C(=O)N[C@H](C(=O)O)[C@@H](C)O)C(C)C)C(C)C` [DYNORPHIN B], the concentration for a half-maximal effect (EC50) came out at 0.13 nM.
